# Assay results published in patent EP0536177B1, “THROMBIN INHIBITORS BASED ON THE AMINO ACID SEQUENCE OF HIRUDIN” (MAJESTY (HER) IN RIGHT OF CANADA as represented by THE …, priority 1990, dated 1991).
# How the values were obtained:
# human α-thrombin [1] = target: T1, human α-thrombin (Homo sapiens, UniProt P00734); assay: Amidolytic (fluorogenic) assay of thrombin activity, hydrolysis of Tosyl-Gly-Pro-Arg-AMC; format: biochemical; conditions: mean of three determinations ± SEM, ni: not inhibited
# T1 construct: the enzyme (human or bovine α-thrombin 0.4 nM)
# Experimental: Thrombin-catalyzed hydrolysis of Tos-Gly-Pro-Arg-pNA was monitored at 405 nm on a Varian Cary 2000 double beam spectrophotometer using substrate concentrations of 2.5, 3.5, 5 and 10 µM in a final volume of 1mL. The hydrolytic reactions were performed at 25°C in 0.1 M Tris-HCl buffer, pH 7.8, containing 0.1 M NaCl and 0.1% PEG 6000. The reactions were initiated by addition of the substrate dissolved in 0.1 M Tris-HCl buffer, pH 7.8 to a preincubated solution of enzyme (0.4 or 0.04 nM) and variable concentrations of inhibitor dissolved in the same buffer. Initial velocities were recorded and Ki values were determined graphically by weighted linear regression of Dixon plots in the case of competitive inhibition, or by the method of Baici (Baici, 1981) for hyperbolic inhibition. Fluorogenic assays were conducted using the same conditions and instrument as above operating in the fluorescence mode in the Ratio (λex=383 nm, λem=455 nm). Fluorescence intensities were calibrated with 7-amino-4-methyl coumarin solution of known concentration. The specificity of the synthetic peptides of the present invention for human α-thrombin may also be determined by comparing their relative inhibitory activities towards both human α-thrombin and bovine α-thrombin and trypsin by comparing K1 values obtained in the amidolytic assay of thrombin activity.
# [2] = Stability of polypeptides in plasma against proteolysis; format: in vitro ADME; conditions: after 30 minutes at 37°C in reconstituted normal human plasma with thromboplastin and calcium chloride, pH 7.8 (Figure 3); read-out: degraded
# Experimental: The peptides of this invention were evaluated for in vitro plasma stability against proteolysis.
# 600 µg of peptide was mixed with 250 µl of reconstituted normal human plasma, 250 µl of thromboplastin, 600 µg of calcium chloride and 50 mM NaHPO4 buffer ph 7.8 to a final volume of 900 µl.
# The mixture was incubated at 37°C and 100 µl aliquots were removed at designated time intervals. 20 µl of 10% trichloroacetic acid was added to individual aliquot and centrifuged at 12 X K for 10 minutes. The supernatant was injected on a C18 analytical column and chromatographed by standard elution procedure (i.e. at 60% 0.1% TFA/H2O to 0.1 TFA in CH3CN).
# human α-thrombin [3] = target: T1, human α-thrombin; assay: Fibrinogen clotting assay; format: biochemical; conditions: inhibition of fibrin clot formation by human α-thrombin
Compound,Ki (human α-thrombin [1]) [nM],"metabolised at 0.5 h, 0.667 mg/mL [2] [%]",IC50 (human α-thrombin [3]) [nM]
"CC[C@H](C)[C@H](NC(=O)[C@H](CCC(=O)O)NC(=O)[C@H](CCC(=O)O)NC(=O)[C@H](Cc1ccccc1)NC(=O)[C@H](CC(=O)O)NC(=O)CNC(=O)[C@H](CC(=O)O)NC(=O)[C@H](CC(N)=O)NC(=O)[C@H](Cc1c[nH]cn1)NC(=O)[C@H](CO)NC(=O)[C@H](CCC(N)=O)NC(=O)[C@H]1CCCN1C(=O)[C@H](CCCNC(=N)N)NC(=O)[C@@H]1CCCN1C(=O)[C@@H](Cc1ccccc1)NC(C)=O)C(=O)N1CCC[C@H]1C(=O)N[C@@H](CCC(=O)O)C(=O)N[C@@H](CCC(=O)O)C(=O)N[C@@H](Cc1ccc(O)cc1)C(=O)N[C@@H](CC(C)C)C(=O)N[C@@H](CCC(N)=O)C(=O)O [P52, [D-Phe^45,Arg^47,D-Pro^48]hirudin^45-65]",46 ± 3,–,–
"CC[C@H](C)[C@H](NC(=O)[C@H](CCC(=O)O)NC(=O)[C@H](CCC(=O)O)NC(=O)[C@H](Cc1ccccc1)NC(=O)[C@H](CC(=O)O)NC(=O)CNC(=O)[C@H](CC(=O)O)NC(=O)[C@H](CC(N)=O)NC(=O)[C@H](Cc1c[nH]cn1)NC(=O)[C@H](CO)NC(=O)[C@H](CCC(N)=O)NC(=O)[C@@H]1CCCN1C(=O)[C@H](CCCNC(=N)N)NC(=O)[C@@H]1CCCN1C(=O)[C@@H](Cc1ccccc1)NC(C)=O)C(=O)N1CCC[C@H]1C(=O)N[C@@H](CCC(=O)O)C(=O)N[C@@H](CCC(=O)O)C(=O)N[C@@H](Cc1ccc(O)cc1)C(=O)N[C@@H](CC(C)C)C(=O)N[C@@H](CCC(N)=O)C(=O)O [P53, [D-Phe^45,Arg^47]hirudin^45-65]",2.8 ± 0.9,> 50,4 ± 0.8
